Molecules are shown by their SMILES.

Test [1] is described as follows: Dissociation constant(KD) of [3H]WIN-35428 at saturation in rat caudate-putamen tissue pre-incubated in buffer (Dopamine transporter).
Test [2] in a line: Dissociation constant(KD) of [3H]WIN-35428 at saturation in rat caudate-putamen tissue pre-incubated in buffer at 100 nM (Dopamine transporter).

`CC1CN(CCCn2c3ccccc3c3ccccc32)CC(C)N1CCCCCCN=C=S` (configuration not stated) [9-{3-[4-(6-Isothiocyanato-hexyl)-3,5-dimethyl-piperazin-1-yl]-propyl}-9H-carbazole]: the Kd in test [1] turned out to be 17 nM; in test [2], 7.6 nM.

Broadly, the Kd is the free concentration of one partner at which half of the binding sites on the other are occupied at equilibrium, for simple one-to-one binding. Low values mean a tighter complex, high ones a looser complex.

(Values after BindingDB's records for doi:10.1021/jm9705519 (National Institute On Drug Abuse-Intramural Research Program, 1998).)
